Test results taken from patent US6525022B1, “Receptor specific atrial natriuretic peptides” (Genentech, Inc., priority 1993, dated 2003).

Target: T1, human natriuretic peptide receptor-A (human), P16066
T1 chain: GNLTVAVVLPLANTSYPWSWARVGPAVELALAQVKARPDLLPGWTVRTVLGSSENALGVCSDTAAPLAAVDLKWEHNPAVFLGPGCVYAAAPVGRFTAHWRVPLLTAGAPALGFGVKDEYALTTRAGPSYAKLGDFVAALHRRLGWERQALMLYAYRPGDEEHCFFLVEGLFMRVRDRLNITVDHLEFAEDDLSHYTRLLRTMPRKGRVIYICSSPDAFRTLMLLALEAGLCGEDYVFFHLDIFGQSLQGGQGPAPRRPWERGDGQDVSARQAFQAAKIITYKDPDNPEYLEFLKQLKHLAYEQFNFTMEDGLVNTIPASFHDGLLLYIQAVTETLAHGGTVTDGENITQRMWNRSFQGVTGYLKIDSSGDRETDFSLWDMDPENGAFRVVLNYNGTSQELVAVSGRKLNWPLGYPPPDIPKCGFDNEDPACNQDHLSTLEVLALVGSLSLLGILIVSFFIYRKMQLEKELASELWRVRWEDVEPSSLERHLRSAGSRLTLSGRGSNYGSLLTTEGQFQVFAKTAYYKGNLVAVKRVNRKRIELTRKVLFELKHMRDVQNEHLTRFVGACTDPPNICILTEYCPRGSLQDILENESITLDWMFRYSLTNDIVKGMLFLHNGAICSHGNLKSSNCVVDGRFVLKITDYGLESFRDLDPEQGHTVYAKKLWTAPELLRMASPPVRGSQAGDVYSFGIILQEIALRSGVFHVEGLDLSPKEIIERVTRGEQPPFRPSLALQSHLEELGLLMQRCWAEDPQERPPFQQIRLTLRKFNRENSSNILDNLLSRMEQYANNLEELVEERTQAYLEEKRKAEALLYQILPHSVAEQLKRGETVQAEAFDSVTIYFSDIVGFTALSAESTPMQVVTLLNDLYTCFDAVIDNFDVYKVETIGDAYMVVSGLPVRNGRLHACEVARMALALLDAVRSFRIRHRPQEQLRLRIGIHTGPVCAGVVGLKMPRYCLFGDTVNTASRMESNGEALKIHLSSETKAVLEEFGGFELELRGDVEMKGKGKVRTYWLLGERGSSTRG
Assay: competition binding vs 125I-rat ANP, membranes
Conditions: chains peptide; modification not given

SLRRSSCFTGSIDRIRAQSGLGCNSFRY [ANF 27]
IC50: 0.118 nM
